This is a sample that favours compounds with a hit; in the whole collection about 1.5% have one here.
GSIS activator = GLuc luminescence reporter in INS-1E cells, primary screen for activators of glucose-dependent secretion of insulin; INS-1E GLuc reporter insulin secretion, 2-3 h; activation, % at 16.6 µM; 370,000 compounds, 0.61% hits;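 active = lowest replicate activation of at least 40%, so every replicate reaches that level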;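 note: 0% = median of neutral control wells and 100% = median of IBMX positive control wells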
CASP6 VEID inh = caspase-6 (human) enzyme inhibition; AID 686996; purified caspase-6, Z-VEID-R110 cleavage fluorescence; 350,000 compounds, 0.53% hits; inhibition, % at 12.5 µM; P55212;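 active = mean inhibition across replicates at least about 35%, with every replicate also reaching that limit, limit read from the data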;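 note: 0% = median of neutral control wells and 100% = no fluorescence left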
RAD52 inh = RAD52 (human) annealing inhibition | P43351 | recombinant RAD52 DNA annealing, FRET fluorescence | inhibition, % at 18.7 µM | 360,000 compounds, 0.46% hits | AID 651710;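 active = every replicate showing at least 50% inhibition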
PglD DTNB = inhibitors of Campylobacter jejuni PglD acetyltransferase | purified PglD enzyme, DTNB colorimetric CoA detection | inhibition, % at 12.5 µM | 360,000 compounds, 0.098% hits; in the data active = inhibition above about 16%, passing the limit was not always enough
Yeast UUG start = modulators of start codon recognition fidelity in yeast; AID 602363; hit rate 0.13% among 350,000; activity score, % at 18.7 µM; S. cerevisiae UUG-firefly luciferase reporter, luminescence/redox ratio;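 active = replicate mean at a twofold rise or more, about +100% in these data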;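 note: firefly luciferase made from a UUG start codon reports start codon fidelity; reporter light over untreated wells divided by growth signal over untreated wells; some hits fall short of that in this replicate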
RAD54 inh = RAD54 (human) branch migration inhibition. RAD54 Holliday junction branch migration, FAM/BHQ fluorescence. inhibition, % at 10.4 µM. 360,000 compounds, 0.14% hits. AID 602329;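 active = mean normalized replicate activity at least 40 and at least half of replicates scoring 40 or more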;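 note: 0% = median of neutral control wells and 100% = median of positive control wells; inhibitors cause a drop in the FAM fluorescence signal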
* hit, by the source's call.

For COc1ccc(S(=O)(=O)N(C)C[C@@H]2Oc3ccc(NC(=O)Nc4ccccc4)cc3CC(=O)N([C@@H](C)CO)C[C@H]2C)cc1 the results were GSIS activator -7.7, CASP6 VEID inh -0.6, RAD52 inh 7.2, PglD DTNB -1.1, Yeast UUG start 3.5 and RAD54 inh 18.3.
Screening COc1ccc(S(=O)(=O)N(C)C[C@@H]2Oc3ccc(NC(=O)NC(C)C)cc3CC(=O)N([C@@H](C)CO)C[C@@H]2C)cc1 returned GSIS activator 27.7, CASP6 VEID inh 2.4, RAD52 inh 14.2, PglD DTNB 6.7, Yeast UUG start 33.7 and RAD54 inh 51.3*.
Cc1ccc(S(=O)(=O)N(C)C[C@H]2Oc3ccc(NC(=O)C4CC4)cc3CC(=O)N([C@H](C)CO)C[C@@H]2C)cc1 was read as GSIS activator 2.1, CASP6 VEID inh 4.6, RAD52 inh 9.7, PglD DTNB 15.2*, Yeast UUG start 51.6 and RAD54 inh -3.6.
CC(=O)c1ccc(N/N=C(/C(N)=O)C2=NC(C)(C)Cc3ccccc32)cc1 was read as GSIS activator -15.9, PglD DTNB -2.7, Yeast UUG start -4.5 and RAD54 inh -8.4.
Screening Cc1cc(C)cc(C(=O)NC(=S)Nc2ccc(-c3cc4ccccc4oc3=O)cc2)c1 returned GSIS activator 42.0*, PglD DTNB -4.3, Yeast UUG start -12.3 and RAD54 inh -0.7.
For Cc1ccc(N2C(=O)[C@@H]3C(c4cccnc4)=NO[C@@H]3C2=O)c(C)c1 the results were GSIS activator 0.5, CASP6 VEID inh 0.6 and RAD52 inh -9.7.
`CCCCOC(=O)c1ccc(-c2ccc(/C=N/NC(=S)NCC)o2)cc1` gave GSIS activator 159.3*.
Cc1ccc(NC(=O)CN(C)C(=O)COc2cccc3cccnc23)cc1 was read as GSIS activator 40.2*.
For Cc1ccc(NC(=O)CN(C)S(=O)(=O)c2cccc3cccnc23)cc1 the results were GSIS activator 7.7, CASP6 VEID inh 1.2, RAD52 inh -9.0, PglD DTNB -5.5, Yeast UUG start 1.2 and RAD54 inh 4.7.
`CC1CCCC(NC(=O)c2ccc3c(SCC(=O)O)c4c(nc3c2)CCC4)C1C` (configuration not stated) gave GSIS activator -0.6, CASP6 VEID inh 42.9*, RAD52 inh -4.2, PglD DTNB 3.8, Yeast UUG start -9.8 and RAD54 inh -12.1.
Screening COc1cc(NC(=O)c2ccc3c(SCC(=O)O)c4c(nc3c2)CCC4)cc(OC)c1OC returned GSIS activator 1.5, CASP6 VEID inh 8.6, RAD52 inh -4.1, PglD DTNB 1.7, Yeast UUG start -17.0 and RAD54 inh -11.3.
`CC(O)c1nc2ccccc2n1C/C=C/c1ccccc1` (configuration not stated) gave PglD DTNB -1.1, Yeast UUG start -10.0 and RAD54 inh 3.2.
Cc1c(P(=S)(c2ccccc2)c2ccccc2)[n+]2ccccc2n1C/C=C/c1ccccc1 was read as GSIS activator 243.1*, CASP6 VEID inh 1.6, RAD52 inh 41.3, PglD DTNB 1.3, Yeast UUG start -14.5 and RAD54 inh 21.3.
Cn1c(=O)[nH]c(=O)c2c1nc(CN1CCN(c3ccccc3F)CC1)n2CC(N)=O was read as CASP6 VEID inh -3.0, RAD52 inh 4.7, PglD DTNB -1.0, Yeast UUG start -11.7 and RAD54 inh -8.3.
COc1ccc(C)cc1NCc1cc(=O)oc2cc(-c3ccccc3)c(O)cc12 was read as GSIS activator 107.3*.
Screening O=C(CCCOc1ccc(Cl)cc1Cl)Nc1ccccn1 returned GSIS activator -3.6, CASP6 VEID inh -0.2, RAD52 inh -57.2, PglD DTNB 0.7, Yeast UUG start -14.0 and RAD54 inh 9.3.
For O=C1CC(CC(=O)N/N=C/c2ccccc2[N+](=O)[O-])=NN1 the results were GSIS activator 0.6, PglD DTNB -6.7, Yeast UUG start -2.7 and RAD54 inh -2.4.
For NNC(=O)CC1=NNC(=O)C1 the results were GSIS activator 3.3, CASP6 VEID inh 40.0*, RAD52 inh -15.8, PglD DTNB 2.1, Yeast UUG start -19.3 and RAD54 inh -1.7.
For Cc1ccc(C(=O)CSc2nc(C)cc(=O)[nH]2)cc1 the results were PglD DTNB -1.7, Yeast UUG start -10.5 and RAD54 inh -10.1.
Screening Cc1cc(=O)[nH]c(SCC(=O)Nc2ccc(S(N)(=O)=O)cc2)n1 returned GSIS activator -2.7, CASP6 VEID inh 52.3* and RAD52 inh -20.0.

Reprinted from the part before: three compounds, then new ones.
For NNC(=O)CC1=NNC(=O)C1 the results were GSIS activator 3.3, CASP6 VEID inh 40.0*, RAD52 inh -15.8, PglD DTNB 2.1, Yeast UUG start -19.3 and RAD54 inh -1.7.
For Cc1ccc(C(=O)CSc2nc(C)cc(=O)[nH]2)cc1 the results were PglD DTNB -1.7, Yeast UUG start -10.5 and RAD54 inh -10.1.
Screening Cc1cc(=O)[nH]c(SCC(=O)Nc2ccc(S(N)(=O)=O)cc2)n1 returned GSIS activator -2.7, CASP6 VEID inh 52.3* and RAD52 inh -20.0.
Cc1cc(SCC(=O)c2ccc(O)c(O)c2)n2nc(C)c(-c3ccccc3)c2n1 was read as GSIS activator 9.6, CASP6 VEID inh 39.4*, RAD52 inh -8.1, PglD DTNB 0.2, Yeast UUG start -17.4 and RAD54 inh 8.1.
For Cc1cc(=O)[nH]c(SCC(=O)Nc2ccc(C(=O)O)cc2)n1 the results were GSIS activator 38.1, CASP6 VEID inh 1.0, RAD52 inh 3.7, PglD DTNB -0.6, Yeast UUG start -16.3 and RAD54 inh -0.4.
O=C(CSc1nc2ccccc2c(=O)[nH]1)c1ccc(O)c(O)c1 was read as GSIS activator 0.1, CASP6 VEID inh 70.4*, RAD52 inh -10.8, PglD DTNB 1.6, Yeast UUG start 24.7 and RAD54 inh 2.6.
Screening O=C(CSc1nc2ccccc2c(=O)[nH]1)c1ccc(O)cc1O returned GSIS activator 3.4, CASP6 VEID inh 3.0 and RAD52 inh -14.7.
`Cc1cc(=O)[nH]c(SCC(=O)c2ccc(O)c(O)c2)n1` gave GSIS activator 8.2, CASP6 VEID inh 36.3*, RAD52 inh -7.1, PglD DTNB 1.7, Yeast UUG start -25.7 and RAD54 inh 11.4.
`C[C@@H]1CCCCO[C@H](CN(C)Cc2ccc(C(=O)O)cc2)[C@H](C)CN([C@H](C)CO)C(=O)c2cc(NC(=O)Nc3ccc(F)cc3)ccc2O1` gave GSIS activator 9.4, CASP6 VEID inh -0.9, RAD52 inh 6.7, PglD DTNB 1.2, Yeast UUG start 5.3 and RAD54 inh -3.6.
For O=C(C[C@@H]1C[C@H]2c3cc(NC(=O)C4CCOCC4)ccc3O[C@H]2[C@@H](CO)O1)NCc1ccc(Cl)cc1 the results were GSIS activator -11.2, CASP6 VEID inh -3.3, RAD52 inh 4.8, PglD DTNB -4.5, Yeast UUG start -6.5 and RAD54 inh 6.3.
COc1ccc(/C([O-])=C(/C(=S)Nc2ccc(C)c(C)c2)n2c[n+](C)c3ccccc32)cc1OC was read as GSIS activator 14.1, CASP6 VEID inh -5.3 and RAD52 inh -5.8.
O=C(CSc1nc2ccccc2n1CCc1ccccc1)c1ccc(O)c(O)c1 was read as GSIS activator -1.2, CASP6 VEID inh 69.6*, RAD52 inh -3.5, PglD DTNB -2.8, Yeast UUG start -11.1 and RAD54 inh -2.7.
`Cc1cc(C)c2[nH]c(O)c(N=NC(=S)NCC3CCCO3)c2c1` (configuration not stated) gave GSIS activator 68.5*, PglD DTNB 0.3, Yeast UUG start -18.8 and RAD54 inh 7.5.
